The values below are quoted from earlier work in paper PMC9668914, “Understanding VPAC receptor family peptide binding and selectivity” (Nature Communications, 2022).

Sequences of proteins named here, by UniProt entry; tags and fusion partners are left off. Residues count along the entry.
UniProt P32241, 31-457: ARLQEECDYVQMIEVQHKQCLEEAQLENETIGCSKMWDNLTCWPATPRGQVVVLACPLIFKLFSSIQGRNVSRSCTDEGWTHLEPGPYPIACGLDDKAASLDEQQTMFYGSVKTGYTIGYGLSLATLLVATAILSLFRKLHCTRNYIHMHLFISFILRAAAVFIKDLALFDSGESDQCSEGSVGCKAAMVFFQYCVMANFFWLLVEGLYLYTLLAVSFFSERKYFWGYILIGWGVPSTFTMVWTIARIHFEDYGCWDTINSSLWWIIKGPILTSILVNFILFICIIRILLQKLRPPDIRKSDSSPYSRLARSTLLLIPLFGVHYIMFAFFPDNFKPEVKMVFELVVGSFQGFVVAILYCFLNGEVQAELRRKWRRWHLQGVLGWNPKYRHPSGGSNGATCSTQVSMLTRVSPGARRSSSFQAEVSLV

One series concerns the target VPAC1R (Homo sapiens, UniProt P32241). The conditions noted are these: cited from earlier work.
A further series has as its target T1, PAC1R (Homo sapiens, UniProt P41586).
T1 construct: An HA signal peptide was inserted in place of the native signal peptide of the receptors; HA signal peptide (replaces the native signal peptide) (N); 3C protease cleavage sites (between FLAG and receptor, and between receptor and His) (internal); expressed in transfected cells; host or cells: COS-7 (transient, PEI)
T1 sequence (P41586 21-468): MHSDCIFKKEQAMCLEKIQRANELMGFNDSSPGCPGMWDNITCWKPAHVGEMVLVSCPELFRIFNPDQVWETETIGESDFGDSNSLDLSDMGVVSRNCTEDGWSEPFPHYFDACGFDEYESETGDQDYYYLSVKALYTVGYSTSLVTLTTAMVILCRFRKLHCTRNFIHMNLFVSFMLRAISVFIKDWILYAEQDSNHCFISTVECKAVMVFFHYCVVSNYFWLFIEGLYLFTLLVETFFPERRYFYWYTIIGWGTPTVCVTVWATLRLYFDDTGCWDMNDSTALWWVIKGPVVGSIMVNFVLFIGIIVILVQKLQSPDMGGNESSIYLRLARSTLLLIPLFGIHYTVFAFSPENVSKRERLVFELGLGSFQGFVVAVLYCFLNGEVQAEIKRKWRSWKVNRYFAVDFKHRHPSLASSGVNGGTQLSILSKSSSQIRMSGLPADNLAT
The arrangement: method as in PMID 19109992. The conditions noted are these: cited from earlier work.

“pituitary adenylate cyclase-activating polypeptide [PACAP]”: the VPAC1R affinity result on VPAC1R is “high affinity”. Besides, at PAC1R, the “affinity for PAC1R relative to VIP, higher” value is “approximately 1000 fold”.
